Laboratory results: patent US4812469A, “Acetamides derived from 2,3-dihydro-3-phenyl-2-benzofuranone” (Adir Et Cie, priority 1987, dated 1989)

Test system: tissue energy-rich compounds (ATP, ADP, AMP) of the brain
Test: Acute normobaric hypoxia in rats, brain tissue energy-rich compounds (ATP level and energy content)
Format: in vivo, rats (male Fischer 344)
Settings: 300 mg/kg I.P., 3% oxygen for 2 minutes
Experimental: The compounds of the present invention were tested in respect of their capacity to prolong the survival of cerebral tissue during acute hypoxia in mice, or to maintain the level of tissue energy-rich compounds in rats subjected to a fall in the oxygen supply [Pharmacology of Cerebral Ischemia, ([…]) p. 334-339 Elsevier Science Publishers B.V., J. Krieglstein ed.]. […] Forsch. Drug Res. (1986), 36 II No. 9, p. 1314-1320].
Whereas the control rats breathe a gaseous mixture containing 21% of oxygen and 79% of nitrogen, the rats subjected to hypoxia breath a mixture of 3% oxygen and 97% nitrogen for 2 minutes.
At the end of the hypoxic period, the animals are rapidly sacrificed by total immersion in liquid nitrogen. The frozen brain is removed and the energy-rich compounds (ATP, ADP, AMP) are extracted and assayed by the luciferin luminescence method.
The tissue energy content (EC) is calculated according to ATKINSON's formula: [formula]

Structure (SMILES): NC(=O)CN1CCCC1=O [Piracetam, piracetam]
- % inhibition of the effects of hypoxia: ATP: 3.9%
- % inhibition of the effects of hypoxia: EC (energy content): 1.6%
